By UniProt entry, the sequences of proteins in these tests, tags left out. Residues count along the entry.
UniProt P53671, 330-632: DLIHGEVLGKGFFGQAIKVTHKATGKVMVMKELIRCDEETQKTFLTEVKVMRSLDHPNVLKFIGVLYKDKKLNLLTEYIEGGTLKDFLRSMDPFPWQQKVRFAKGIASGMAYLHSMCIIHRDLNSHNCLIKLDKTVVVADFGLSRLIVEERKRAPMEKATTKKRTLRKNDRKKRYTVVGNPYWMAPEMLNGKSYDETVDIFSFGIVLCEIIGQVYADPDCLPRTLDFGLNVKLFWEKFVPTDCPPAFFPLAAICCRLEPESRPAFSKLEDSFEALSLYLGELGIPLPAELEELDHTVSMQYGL
UniProt P53667, 330-637: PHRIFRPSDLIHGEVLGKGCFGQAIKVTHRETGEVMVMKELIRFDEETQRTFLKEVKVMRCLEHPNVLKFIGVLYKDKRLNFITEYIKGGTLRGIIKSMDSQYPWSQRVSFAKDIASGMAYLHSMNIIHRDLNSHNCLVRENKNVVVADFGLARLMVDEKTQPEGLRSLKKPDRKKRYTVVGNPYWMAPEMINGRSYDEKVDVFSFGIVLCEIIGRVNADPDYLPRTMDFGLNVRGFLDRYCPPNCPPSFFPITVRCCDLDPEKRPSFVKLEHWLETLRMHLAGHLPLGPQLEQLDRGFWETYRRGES

In publication PMC6835155, “Lessons from LIMK1 enzymology and their impact on inhibitor design” (Biochemical Journal, 2019):

Legend:
LIMK2KD = target: T1, LIMK2KD (Homo sapiens, UniProt P53671); test: Differential (dynamic) scanning fluorimetry (DSF) assay, LIMK2KD; format: binding; conditions: read-out: TM Shift LIMK2 (K)
T1 construct: The cDNA coding for LIMK2 residues 330 to 632 was PCR amplified; His6 (N, cleaved yes); made in house; host or cells: baculovirus; Sf9 for virus, TriEx insect cells for expression

LIMK1KD = LIMK1KD (Homo sapiens, UniProt P53667); test: Differential (dynamic) scanning fluorimetry (DSF) assay, LIMK1KD; conditions: read-out: TM Shift LIMK1 (K)

ΔTm at 10 µM (LIMK2KD): 0.3 °C | ΔTm at 10 µM (LIMK1KD): 0.3 °C
SMILES: CN1CCC(COc2cnc(-c3cccc(Cn4nc(-c5cccc(C#N)c5)ccc4=O)c3)nc2)CC1
